Legend:
D2 = D2 (Homo sapiens, UniProt P14416); test: Off-target profiling panel; format: binding; conditions: 7-OH-DPAT 1,000 nM
Description: To assess the in vivo pharmacokinetics of MBE1, we assessed the measured plasma concentrations following a 1 mg/kg intravenous or 10 mg/kg oral dose of MBE1 in fasted male CD-1 mice.

By UniProt entry, the sequences of proteins in these tests, tags left out.
UniProt P14416, whole entry: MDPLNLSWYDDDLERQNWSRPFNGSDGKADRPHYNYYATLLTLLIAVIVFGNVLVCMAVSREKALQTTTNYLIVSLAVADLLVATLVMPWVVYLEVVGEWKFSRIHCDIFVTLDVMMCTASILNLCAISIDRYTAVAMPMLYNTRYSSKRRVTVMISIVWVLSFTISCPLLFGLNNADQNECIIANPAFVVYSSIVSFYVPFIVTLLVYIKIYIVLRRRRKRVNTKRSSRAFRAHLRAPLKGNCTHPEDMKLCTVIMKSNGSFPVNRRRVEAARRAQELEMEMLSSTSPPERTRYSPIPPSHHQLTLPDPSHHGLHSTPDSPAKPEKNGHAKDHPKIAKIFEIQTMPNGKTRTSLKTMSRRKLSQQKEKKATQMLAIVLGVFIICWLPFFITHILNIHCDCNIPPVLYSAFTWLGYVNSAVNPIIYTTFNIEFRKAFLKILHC
UniProt P21397, whole entry: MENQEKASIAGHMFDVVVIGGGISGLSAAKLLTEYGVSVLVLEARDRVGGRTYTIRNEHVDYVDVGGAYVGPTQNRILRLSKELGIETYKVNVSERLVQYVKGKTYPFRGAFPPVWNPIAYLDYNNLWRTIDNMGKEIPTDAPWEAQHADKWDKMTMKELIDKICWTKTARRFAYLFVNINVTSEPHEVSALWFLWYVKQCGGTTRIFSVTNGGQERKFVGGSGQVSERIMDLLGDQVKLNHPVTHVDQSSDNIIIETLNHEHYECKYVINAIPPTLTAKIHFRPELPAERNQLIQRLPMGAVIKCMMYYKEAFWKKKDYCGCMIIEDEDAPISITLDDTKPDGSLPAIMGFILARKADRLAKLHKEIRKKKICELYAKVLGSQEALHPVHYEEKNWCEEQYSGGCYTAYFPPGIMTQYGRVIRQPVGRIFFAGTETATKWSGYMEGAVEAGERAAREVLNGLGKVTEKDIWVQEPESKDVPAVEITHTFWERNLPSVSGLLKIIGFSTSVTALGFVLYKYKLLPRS

MAO-A = MAO-A (Homo sapiens, UniProt P21397); test: Off-target profiling panel; format: biochemical; conditions: clorgyline 1,000 nM

Row | SMILES | Inhibition by reference at listed dose (%) (D2) | Inhibition by reference at listed dose (%) (MAO-A)
1 | CCCN(CCC)C1CCc2ccc(O)cc2C1 (centres unmarked) [7-OH-DPAT, reference compound] | 100.10% | 
2 | C#CCN(C)CCCOc1ccc(Cl)cc1Cl [clorgyline, reference compound] |  | 99.9%

— paper PMC12595434, “Development of retinoid nuclear receptor pathway antagonists through targeting aldehyde dehydrogenase 1A3” (iScience, 2025)
